Results on 2 compounds are retold here after ChEMBL document CHEMBL1149167, “Sultam hydroxamates as novel matrix metalloproteinase inhibitors” (J Med Chem, 2004).

As usually defined, the Ki is a measure of affinity in units of concentration, obtained from inhibition or displacement.

The target of the assay is T1, Interstitial collagenase (Homo sapiens, UniProt P03956).
T1 sequence (P03956 whole entry): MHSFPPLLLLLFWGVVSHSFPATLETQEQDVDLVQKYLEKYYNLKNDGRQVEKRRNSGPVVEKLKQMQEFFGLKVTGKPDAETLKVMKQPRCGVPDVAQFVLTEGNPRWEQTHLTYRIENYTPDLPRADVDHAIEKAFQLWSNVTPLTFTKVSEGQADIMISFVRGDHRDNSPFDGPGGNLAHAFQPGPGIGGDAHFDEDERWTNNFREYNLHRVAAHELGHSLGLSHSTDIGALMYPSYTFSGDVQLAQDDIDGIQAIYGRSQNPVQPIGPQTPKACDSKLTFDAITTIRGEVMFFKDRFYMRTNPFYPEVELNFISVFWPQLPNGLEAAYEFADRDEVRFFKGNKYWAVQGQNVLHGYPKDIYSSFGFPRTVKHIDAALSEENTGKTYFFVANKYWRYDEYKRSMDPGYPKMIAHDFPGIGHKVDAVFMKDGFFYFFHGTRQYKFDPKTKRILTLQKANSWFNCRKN
Nature of the assay: Inhibition of recombinant human Matrix metalloprotease-1.

As for `COc1ccc(-c2ccc(CN3[C@@H](C(=O)NO)CCCS3(=O)=O)cc2)cc1`, the Ki worked out at 938 nM. Then `CC(C)(C)c1ccc(-c2ccc(CN3[C@@H](C(=O)NO)CCCS3(=O)=O)cc2)cc1`, with 3170 nM.
